A short description of the assay: qHTS Assay for Enhancers of SMN2 Splice Variant Expression. Also: % of control where 0% means no effect; nearly all actives have a fitted effect of over 55% in size. To be noted: HEK293 SMN2-luciferase splicing reporter, luminescence, 30-36 h. Background: In qHTS, concentration-response curves come from the screen itself.

We go through two compounds from PubChem BioAssay AID1458 (National Center for Advancing Translational Sciences (NCATS), 2008).

Values joined by “and” are separate entries in the source; they are usually repeats but may differ in a detail not shown here. Equal values may be shown once. The hits were mostly taken out for another list; the other results follow. Records with an inconclusive call do not appear. Active and inactive are the calls of the source. Calls follow the shape of the dose curve; as a rule, active = well fitted activation curve with a large enough effect; inconclusive = small, poorly fitted or top-dose-only effect; inactive = no such curve, though single readings can be large or run the other way.

With `COC(=O)C1=C(C)NC(C)=C(C(=O)OCCCN2CCC(c3ccccc3)(c3ccccc3)CC2)C1c1cccc([N+](=O)[O-])c1` (configuration not stated), under “at 46.1 µM (top of the series)”, the activity change, positive = activation was inactive: -87.5% and inactive: -53.5%.
On to `Cc1cnc(C(=O)NCCc2ccc(S(=O)(=O)NC(=O)NC3CCCCC3)cc2)cn1`, for which the activity change, positive = activation (at 20.6 µM (top of the series)) was inactive: -1.46%.
